Measurements published in publication PMC8219695 (Nature Communications, 2021).
“And” between values parts separate entries of the source, which are not always exact repeats. Identical values can stand only once.

Sequences of proteins named here, by UniProt entry; tags and fusion partners are left off.
UniProt P41143, whole entry: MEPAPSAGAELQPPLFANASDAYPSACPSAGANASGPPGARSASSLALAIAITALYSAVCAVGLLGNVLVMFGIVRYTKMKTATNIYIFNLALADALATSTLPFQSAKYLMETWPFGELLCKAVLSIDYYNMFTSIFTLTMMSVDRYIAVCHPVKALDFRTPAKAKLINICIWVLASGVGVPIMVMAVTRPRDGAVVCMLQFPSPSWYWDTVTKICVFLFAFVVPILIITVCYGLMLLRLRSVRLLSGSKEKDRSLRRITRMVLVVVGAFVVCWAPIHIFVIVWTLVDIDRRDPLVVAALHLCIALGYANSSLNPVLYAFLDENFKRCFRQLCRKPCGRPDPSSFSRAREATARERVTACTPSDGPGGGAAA
UniProt P32300, whole entry: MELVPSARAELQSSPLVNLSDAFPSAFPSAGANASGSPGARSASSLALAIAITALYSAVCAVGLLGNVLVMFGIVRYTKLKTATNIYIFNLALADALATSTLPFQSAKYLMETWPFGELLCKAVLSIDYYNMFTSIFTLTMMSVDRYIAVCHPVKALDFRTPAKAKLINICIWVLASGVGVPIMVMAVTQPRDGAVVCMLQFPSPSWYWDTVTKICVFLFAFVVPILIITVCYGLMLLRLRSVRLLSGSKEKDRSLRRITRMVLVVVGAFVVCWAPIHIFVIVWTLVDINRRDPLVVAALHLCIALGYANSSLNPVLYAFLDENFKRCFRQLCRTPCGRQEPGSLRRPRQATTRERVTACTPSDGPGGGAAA

Experiments:
Format in all cases: cell-based
[1] = molecular target: hDOR (Homo sapiens, UniProt P41143); experiment: CAMYEL BRET cAMP agonist assay at hDOR; conditions: single replicate values, Supplementary Figure 7A
[2] = molecular target: T1, mDOR (Mus musculus, UniProt P32300); experiment: CAMYEL BRET antagonism assay at mDOR (inhibition of DPDPE); conditions: plotted at Log[drug] (M) -13, individual replicates, Supplementary Figure 9B source data
T1 construct: expressed in transfected cells

[3] = molecular target: T1, mDOR; experiment: CAMYEL BRET cAMP agonist assay at mDOR; conditions: single replicate values, Supplementary Figure 7B

DPDPE
Agonist activity of 7OH analogs at hDOR ([1]; Log[drug] (M) -5): 108.464 and 116.733 and 109.409 and 107.309 and 104.622 and 104.376 and 108.121 and 116.428 and 106.246
Agonist activity of 7OH analogs at hDOR ([1]; Log[drug] (M) -6): 107.84 and 82.4366 and 97.7793 and 99.1324 and 98.9503 and 90.0975 and 107.763 and 95.4669 and 100.614
Agonist activity of 7OH analogs at hDOR ([1]; Log[drug] (M) -7): 94.8616 and 92.4318 and 96.8308 and 106.185 and 103.126 and 93.534 and 95.6914 and 92.7933 and 91.4728
Agonist activity of 7OH analogs at hDOR ([1]; Log[drug] (M) -8): 91.1521 and 73.5219 and 77.5788 and 74.9379 and 76.598 and 76.1993 and 70.9318 and 69.6207 and 90.2955
Agonist activity of 7OH analogs at hDOR ([1]; Log[drug] (M) -9): 42.5842 and 37.0905 and 48.5956 and 40.7398 and 32.6551 and 43.8472 and 51.7146 and 40.9404 and 43.2179
Agonist activity of 7OH analogs at hDOR ([1]; Log[drug] (M) -10): 11.4658 and 18.4337 and 23.7987 and 13.5265 and 2.85 and 5.566 and 4.73 and 10.4421 and 11.1259
Agonist activity of 7OH analogs at hDOR ([1]; Log[drug] (M) -11): 6.089 and 3.346 and 1.897 and 10.798 and 3.8891 and 0.8973 and 3.181 and -6.329 and 3.148
Agonist activity of 7OH analogs at hDOR ([1]; Log[drug] (M) -13): -3.358 and -1.52 and 4.878 and -0.5328 and -3.5715 and 4.104 and 5.632 and 2.365 and -3.638
Response to EC80 DPDPE alone at the mDOR (raw signal) [2]: 0.2216 and 0.2105 and 0.2076 and 0.126 and 0.1112 and 0.1106 and 0.05315 and 0.03581 and 0.04465 and 0.205 and 0.2119 and 0.2059 and 0.121 and 0.1155 and 0.112 and 0.06785 and 0.05977 and 0.04072 and 0.2098 and 0.2092 and 0.2107 and 0.1208 and 0.1136 and 0.1212 and 0.06027 and 0.04949 and 0.05384
Agonist activity of 7OH analogs at mDOR ([3]; Log[drug] (M) -5): 119.19 and 109.156 and 98.1208 and 104.346 and 101.157 and 103.483 and 100.727 and 108.147 and 112.465
Agonist activity of 7OH analogs at mDOR ([3]; Log[drug] (M) -6): 101.655 and 79.1185 and 100.475 and 106.537 and 91.4269 and 94.0755 and 101.126 and 96.8592 and 102.652
Agonist activity of 7OH analogs at mDOR ([3]; Log[drug] (M) -7): 95.0806 and 91.0111 and 103.453 and 93.961 and 98.0117 and 103.021 and 95.8382 and 97.1021 and 100.993
Agonist activity of 7OH analogs at mDOR ([3]; Log[drug] (M) -8): 105.195 and 94.1471 and 96.3086 and 90.4519 and 89.1321 and 103.669 and 83.6346 and 78.8229 and 100.044
Agonist activity of 7OH analogs at mDOR ([3]; Log[drug] (M) -9): 46.9294 and 45.7767 and 76.3287 and 53.6511 and 52.3859 and 73.0815 and 60.7072 and 52.0168 and 72.5939
Agonist activity of 7OH analogs at mDOR ([3]; Log[drug] (M) -10): 29.7658 and 40.9166 and 50.1794 and 8.654 and 16.754 and 18.7171 and 18.4805 and 17.9456 and 21.8293
Agonist activity of 7OH analogs at mDOR ([3]; Log[drug] (M) -11): 16.2882 and 8.249 and 12.8768 and 11.2547 and 11.0168 and -2.748 and 1.65 and -1.714 and 0.06337
Agonist activity of 7OH analogs at mDOR ([3]; Log[drug] (M) -13): 6.062 and -10.7876 and 4.726 and -0.597 and -1.448 and 2.045 and 1.667 and -1.765 and 4.269
